Data taken from ChEMBL document CHEMBL1201862, “PubChem BioAssay data set” (2004).
Some of the results follow. Cut-off read from the data, not from the text of the source: active = GI50 up to about 1.1 µM and inactive = higher. These assays gave more results; the selection is not random.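 Assay format: 96-well plates, 48-hour exposure. GI50 marks 50% less growth.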 For some assays here: Potency and affinity values are given separately.

Key:
Test in all cases: NCI tumour cell line growth inhibition, 48 h
K562 = tested on: K562
HT-29 = tested on: HT-29
Hs-578T = tested on: Hs-578T
IGROV-1 = tested on: IGROV-1
KM12 = tested on: KM12
LOX IMVI = tested on: LOX IMVI
M14 = tested on: M14
KM-20L2 = tested on: KM-20L2
LXFL 529 = tested on: LXFL 529
M19-MEL = tested on: M19-MEL

| SMILES | GI50 (K562) | GI50 (HT-29) | GI50 (Hs-578T) | GI50 (IGROV-1) | GI50 (KM12) | GI50 (LOX IMVI) | GI50 (M14) | GI50 (KM-20L2) | GI50 (LXFL 529) | GI50 (M19-MEL) |
| --- | --- | --- | --- | --- | --- | --- | --- | --- | --- | --- |
| CC1=CC2OC3CC4OC(=O)/C=C\C=C\C(C(C)O)OCCC(C)C(O)C(=O)OCC2(CC1O)C4(C)C31CO1 (stereo not drawn) | active: < 0.005 µM |  |  |  |  |  |  |  |  |  |
| CCCCCCCCCCCCCNCC(C)O (stereo not drawn) | inactive: 4.63 µM | inactive: 2.46 µM | inactive: 18.4 µM | inactive: 12 µM | inactive: 14.9 µM | inactive: 7.85 µM | inactive: 11 µM |  |  |  |
| O=[N+]([O-])C1([N+](=O)[O-])COCOC1 | inactive: 24.5 µM | inactive: 42.3 µM | inactive: > 100 µM | inactive: 27.5 µM | inactive: 61.9 µM | inactive: > 100 µM | inactive: 38.7 µM |  |  |  |
| CCCC[S+](N)(=O)CCC(N)P(=O)(O)O (stereo not drawn) | inactive: > 100 µM | inactive: > 100 µM | inactive: > 100 µM | inactive: > 100 µM |  | inactive: 37 µM | inactive: 77.1 µM |  |  |  |
| Nc1nc2c(ncn2CCN(CCCl)CCCl)c(=O)[nH]1 | inactive: > 100 µM | inactive: > 100 µM |  | inactive: > 100 µM | inactive: > 100 µM |  | inactive: > 100 µM | inactive: > 100 µM | inactive: > 100 µM | inactive: > 100 µM |
| Cc1[nH]c2c(C)c([N+](=O)[O-])c(C)c([N+](=O)[O-])c2c1[N+](=O)[O-] | inactive: 5.83 µM | inactive: 7.73 µM |  | inactive: 5.11 µM | inactive: 10.5 µM | inactive: 4.61 µM | inactive: 13.4 µM | inactive: 6.79 µM | inactive: 9.51 µM | inactive: 10 µM |
| COc1ccc([N+](=O)[O-])c(C[N+](C)(CCCl)CCCl)c1 | inactive: > 100 µM | inactive: > 100 µM | inactive: > 100 µM | inactive: > 100 µM | inactive: > 100 µM | inactive: > 100 µM | inactive: > 100 µM |  |  |  |
| COP(C)(=O)C(N)Cc1ccccc1 (stereo not drawn) | inactive: > 100 µM | inactive: > 100 µM | inactive: > 100 µM | inactive: > 100 µM | inactive: > 100 µM | inactive: > 100 µM | inactive: > 100 µM |  |  |  |
| O=C1Nc2ccc([N+](=O)[O-])cc2/C1=N/Nc1ccc([N+](=O)[O-])cc1[N+](=O)[O-] | inactive: 36.1 µM | inactive: 10 µM |  | inactive: 51.6 µM | inactive: 27.8 µM | inactive: 28.1 µM | inactive: 23.4 µM | inactive: 24.2 µM | inactive: 37.3 µM | inactive: 28.8 µM |
| O[C@H]1[C@@H](O)CC2CCN3Cc4cc5c(cc4[C@H]1C23)OCO5 (stereo partly drawn) | inactive: > 100 µM | inactive: > 100 µM |  | inactive: > 100 µM | inactive: > 100 µM | inactive: > 100 µM | inactive: > 100 µM | inactive: > 100 µM | inactive: > 100 µM | inactive: > 100 µM |
| ClCCSc1c2ccccc2nc2ccccc12 | inactive: 15.1 µM | inactive: 4.12 µM | inactive: 2.77 µM | inactive: 4.69 µM | inactive: 5.18 µM | inactive: 3.81 µM | inactive: 11.1 µM |  |  |  |
| Cc1ccc([N+](=O)[O-])c(C[N+](C)(CCCl)CCCl)c1 | inactive: 16.7 µM | inactive: 18.2 µM | inactive: 56 µM | inactive: 19.8 µM | inactive: 14.8 µM | inactive: 22.2 µM | inactive: 12.8 µM |  |  |  |
| Cc1ccc2ccc3ccc4ccccc4c3c2c1.O=C1c2cc([N+](=O)[O-])ccc2-c2c1cc([N+](=O)[O-])cc2[N+](=O)[O-] | inactive: 1.26 µM | inactive: 1.49 µM | inactive: 3.22 µM | active: 0.644 µM | inactive: 1.14 µM | inactive: 1.3 µM | inactive: 6.56 µM |  |  |  |
| O=C1CCN2CCCC12 (stereo not drawn) | inactive: 69.3 µM | inactive: > 100 µM | inactive: > 100 µM | inactive: > 100 µM | inactive: > 100 µM | inactive: 97.3 µM | inactive: 68.7 µM |  |  |  |
| NNc1nc2nonc2nc1NN | inactive: 33.4 µM | inactive: 27.9 µM | inactive: 73.3 µM | inactive: 21.8 µM | inactive: 46.1 µM | inactive: 31.6 µM | inactive: 27.9 µM |  |  |  |
| O=[As](O)(O)O | inactive: > 100 µM | inactive: > 100 µM | inactive: 72.8 µM | inactive: 22.9 µM | inactive: > 100 µM | inactive: > 100 µM | inactive: > 100 µM |  |  |  |
| O[C@@H]1CCN2CCC[C@H]12 | inactive: > 100 µM | inactive: > 100 µM |  | inactive: > 100 µM | inactive: > 100 µM | inactive: > 100 µM | inactive: > 100 µM |  |  |  |
| O=[N+]([O-])c1ncn(F)c1[N+](=O)[O-] | inactive: > 100 µM | inactive: > 100 µM |  | inactive: > 100 µM | inactive: > 100 µM | inactive: 79.8 µM | inactive: > 100 µM |  |  |  |
| O=[N+]([O-])C(Cl)(Cl)/C=C(\Cl)C(Cl)(Cl)[N+](=O)[O-] | active: 0.0159 µM |  |  |  |  |  |  |  |  |  |
| C[S+](N)(=O)CCC(N)P(=O)(O)O (stereo not drawn) | inactive: > 100 µM | inactive: > 100 µM | inactive: > 100 µM | inactive: > 100 µM |  | inactive: 39.8 µM | inactive: 70.8 µM |  |  |  |
| COc1ccc2nccc(C=O)c2c1 | active: 0.0745 µM | inactive: 3.01 µM | inactive: 6.17 µM | inactive: 9.06 µM | inactive: 30.1 µM | active: 0.615 µM | inactive: 3.58 µM |  |  |  |
| O=[N+]([O-])C1([N+](=O)[O-])CCCc2nonc21 |  | inactive: 30.4 µM | inactive: 13.8 µM | inactive: 17.6 µM | inactive: 33 µM | inactive: 17.2 µM | inactive: 16.3 µM |  |  |  |
| COc1ccc(C[N+](C)(CCCl)CCCl)c([N+](=O)[O-])c1 | inactive: > 100 µM | inactive: > 100 µM | inactive: > 100 µM | inactive: > 100 µM | inactive: > 100 µM | inactive: > 100 µM | inactive: > 100 µM |  |  |  |
| Cc1ccc2ccc(C)c(C)c2c1.O=[N+]([O-])c1cc([N+](=O)[O-])c(O)c([N+](=O)[O-])c1O | inactive: > 100 µM | inactive: > 100 µM | inactive: > 100 µM | inactive: > 100 µM | inactive: > 100 µM | inactive: > 100 µM | inactive: 84.3 µM |  |  |  |
